Results on 34 molecules are retold here after US20110059889A1 (SYNTONIX PHARMACEUTICALS, published 2011).

Amino acid sequences for entries named in this document (tags omitted). Residues count along the entry.
UniProt P55899, 24-297 limits assumed, chain 1 of 2: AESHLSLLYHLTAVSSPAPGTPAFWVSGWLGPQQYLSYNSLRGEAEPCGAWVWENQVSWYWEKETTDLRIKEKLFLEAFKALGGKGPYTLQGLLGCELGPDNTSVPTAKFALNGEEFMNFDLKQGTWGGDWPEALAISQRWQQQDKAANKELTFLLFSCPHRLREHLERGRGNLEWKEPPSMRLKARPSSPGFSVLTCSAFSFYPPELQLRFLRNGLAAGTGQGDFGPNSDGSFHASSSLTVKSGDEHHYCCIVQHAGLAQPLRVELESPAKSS

The Kd is the equilibrium constant for the complex coming apart. A lower Kd goes with a tighter complex. As usually defined, the IC50 is the concentration at which inhibition is half-maximal.

For experiment [1], the target named is T1, soluble human FcRn (shFcRn) (human, UniProt P55899 24-297; P61769 21-119).
T1 construct: Biotinylated for the ELISA, amine-coupled to a CM5 chip for SPR; also called biotinylated shFcRn
Briefly: SPR pH 6. Here is the method:
(§1) The following steps were performed to cross-link soluble human or cynomolgus FcRn to the dextran surface of a CM5 sensor chip (Biacore AB, Uppsala, Sweden) by an amine coupling reaction involving 1-ethyl-(3-dimethylaminopropyl)-carbodiimide hydrochloride (EDC) (Biacore AB, Uppsala, Sweden) and N-hydroxysuccinimide (NHS) (Biacore AB, Uppsala, Sweden) as recommended by Biacore (BIAapplications Handbook, version AB, section 4.2, Biacore AB, Uppsala, Sweden). […] Residual sites on the FcRn flow cell were blocked with 1 M ethanolamine hydrochloride pH 8.5 (Biacore AB, Uppsala, Sweden). A control flow cell was blocked with ethanolamine for reference subtraction. For analysis of the monomeric peptides, FcRn was coated to a final density of 4000-5000 response units (RU). For analysis of the peptide dimers, FcRn was coated to a density of 2000-2500 RU. All SPR measurements were performed using a BIACORE 3000 Instrument (Biacore AB Uppsala, Sweden). For measurements done at either pH 6 or pH 7.4, experiments were performed in 50 mM phosphate, 100 mM sodium chloride, 0.01% surfactant P20 (Biacore AB, Uppsala, Sweden).
(§2) The peptide was dissociated from the chip for 2.5 minutes with buffer. […] Sensorgrams were generated and analyzed using BiaEval software version 3.1 (Biacore AB, Uppsala, Sweden). The equilibrium RU observed for each injection was plotted against concentration.

The target in experiment [2] is T1, soluble human FcRn (shFcRn). Briefly: SPR pH 7.4. Here is the method:
as §1, §2

The target is the same in experiment [3]. Briefly: IgG competition ELISA. Here is the method:
Afterwards, the plate was washed with 200 μl/well of Buffer B (Buffer B: 100 mM MES pH 6, 150 mM NaCl, 0.5% BSA IgG-free (Jackson ImmunoResearch, West Grove, Pa.), 0.05% Tween-20). […] To allow for mixing, the plate was rocked for 2 minutes, sealed and incubated at 37° C. for 2 hours. […] Once color developed, 100 μl/well of TMB stop solution (KPL, Gaithersburg, Md.) was added and the absorbance was measured at 450 nm.
A general note: An ELISA detects its analyte on a solid surface through an enzyme-linked reagent.

For experiment [4] the target is unchanged. Briefly: SPR pH 6; 4-fluoro-Phe in place of Tyr; Pen backbone. The procedure:
as §1, §2

Experiment [5] has the same target. Put plainly: SPR pH 6; 4-methoxyPhe in place of Tyr; Pen backbone. Here is the method: as §1, §2

Turning to QRFCTGHXGGLYPCNGP (Pen 4; 2-pyridylalanine 8; disulfide 4-14; C-terminal amide) [Peptide No. 58], in experiment [1], the Kd is 1.2 µM.

In the case of QRFCTGXFGGLYPCNGP (Pen 4; Dap(Guanyl) 7; disulfide 4-14; C-terminal amide) [Peptide No. 297], the Kd in experiment [2] turned out to be 16 µM; in experiment [1], 13 µM. The same molecule showed an IC50 in experiment [3] of 54 µM. Take QRFCTGHXGGLYPCNGP (Pen 4; 1-napthylalanine 8; disulfide 4-14; C-terminal amide) [Peptide No. 61]: the IC50 in experiment [3] came out at 13 µM. The same molecule showed a Kd in experiment [1] of 2.2 µM. RFCTGHFFGLYPC (Pen 3; D-Phe 8; Sar 9; NMeLeu 10; disulfide 3-13; C-terminal amide) [Peptide No. 217]: in experiment [3], the IC50 came out at 11 µM. For the molecule RFCTGHFVGLYPC (Pen 3; D-Val 8; Sar 9; NMeLeu 10; disulfide 3-13; C-terminal amide) [Peptide No. 218], the Kd in experiment [1] is 13 µM.

For RFCTGHFDGLYPC (Pen 3; D-Asp 8; Sar 9; NMeLeu 10; disulfide 3-13; C-terminal amide) [Peptide No. 242], in experiment [3], the IC50 is 33 µM. The same molecule returned a Kd in experiment [1] of 2.6 µM. The corresponding values for RFCTGHFWGLYPC (Pen 3; D-Trp 8; Sar 9; NMeLeu 10; disulfide 3-13; C-terminal amide) [Peptide No. 220] are 11 µM and 2.7 µM. In experiment [2], RFCTGAFGGLYPC (Pen 3; Sar 9; NMeLeu 10; disulfide 3-13; C-terminal amide) [Peptide No. 266] yielded a Kd of 13 µM. RFCTGHFQGLYPC (Pen 3; D-Gln 8; Sar 9; NMeLeu 10; disulfide 3-13; C-terminal amide) [Peptide No. 245] gave an IC50 in experiment [3] of 4.5 µM. The same molecule yielded a Kd in experiment [1] of 0.36 µM. QRFCTGHFGPLYPCNGP (Pen 4; D-Pro 10; disulfide 4-14; C-terminal amide) [Peptide No. 40] came in with a Kd in experiment [1] of 0.23 µM.

For the molecule QRFCTGHFGHLYPCNGP (Pen 4; D-His 10; disulfide 4-14; C-terminal amide) [Peptide No. 42], the IC50 in experiment [3] was determined as 12 µM.

In experiment [3], QRFCTGHFGGWYPCNGP (Pen 4; disulfide 4-14; C-terminal amide) [Peptide No. 116] registered an IC50 of 1.7 µM. In experiment [1], this molecule displayed a Kd of 0.17 µM. Take QRFCTGHFPPLYPCNGP (Pen 4; D-Pro 9 and 10; disulfide 4-14; C-terminal amide) [Peptide No. 152]: in experiment [1], the Kd stood at 3.3 µM. In experiment [3], QRFCGGHFGGLYPCNGP (Pen 4; disulfide 4-14; C-terminal amide) [Peptide No. 195] came in with an IC50 of 7.7 µM. In experiment [3], QRFCTGHFYGLYPCNGP (Pen 4; D-Tyr 9; disulfide 4-14; C-terminal amide) [Peptide No. 53] registered an IC50 of 3.2 µM. Besides, the Kd in experiment [1] was 0.32 µM.

For QRFCTGHFIGLYPCNGP (Pen 4; D-Ile 9; disulfide 4-14; C-terminal amide) [Peptide No. 51], in experiment [3], the IC50 was 9.4 µM. The same molecule came in with a Kd in experiment [1] of 2.6 µM.

In experiment [3], QRFCTGHFFPLYPCNGP (Pen 4; D-Phe 9 (Pro 10 is L); disulfide 4-14; C-terminal amide) [Peptide No. 203] returned an IC50 of 22 µM. QRFCTGHFGGMYPCNGP (Pen 4; disulfide 4-14; C-terminal amide) [Peptide No. 117] came in with an IC50 in experiment [3] of 7.7 µM. This molecule had a Kd in experiment [1] of 0.44 µM. As for QRFCTGHFGGLFPCNGP (Pen 4; 4-fluoro-Phe 12; disulfide 4-14; C-terminal amide) [Peptide No. 140], the Kd in experiment [4] worked out at 2.2 µM. The molecule QRFCTGHFDGLYPCNGP (Pen 4; D-Asp 9; disulfide 4-14; C-terminal amide) [Peptide No. 47] gave an IC50 in experiment [3] of 3.1 µM. For QRFCTGHWGGLYPCNGP (Pen 4; disulfide 4-14; C-terminal amide) [Peptide No. 95], the Kd in experiment [1] was found to be 2.7 µM. Same read-out and setting: then QRWCTGHFGGLYPCNGP (Pen 4; disulfide 4-14; C-terminal amide) [Peptide No. 98], with 0.29 µM. Take QRFCTGHFAALYPCNGP (Pen 4; D-Ala 9 and 10; disulfide 4-14; C-terminal amide) [Peptide No. 148]: in experiment [3], the 50% inhibitory concentration (IC50) was found to be 4.5 µM. QRFCTGHFGGHYPCNGP (Pen 4; disulfide 4-14; C-terminal amide) [Peptide No. 84] displayed an IC50 in experiment [3] of 6.5 µM. Turning to QRFCTGHFHGLYPCNGP (Pen 4; D-His 9; disulfide 4-14; C-terminal amide) [Peptide No. 50], the Kd in experiment [1] is 0.41 µM.

QRFCTGHFGILYPCNGP (Pen 4; D-Ile 10; disulfide 4-14; C-terminal amide) [Peptide No. 43] came in with a Kd in experiment [1] of 2.2 µM.

Regarding QRFCTGHFPGLYPCNGP (Pen 4; D-Pro 9; disulfide 4-14; C-terminal amide) [Peptide No. 48], the Kd is 21 µM in experiment [2] and 0.79 µM in experiment [1].

Molecule QRFCTGHFGGLFPCNGP (Pen 4; 4-methoxyPhe 12; disulfide 4-14; C-terminal amide) [Peptide No. 64] gave a Kd in experiment [5] of 31 µM.

With QRFCTGHFGYLYPCNGP (Pen 4; D-Tyr 10; disulfide 4-14; C-terminal amide) [Peptide No. 45], in experiment [2], binding was put at a Kd of 31 µM. Moreover, the IC50 in experiment [3] is 13 µM. In turn, QRFCTGHFGGWYPCNGP (Pen 4; Sar 10; disulfide 4-14; C-terminal amide) [Peptide No. 238] registered a Kd in experiment [1] of 0.068 µM. QRFCTGHFGFLYPCNGP (Pen 4; D-Phe 10; disulfide 4-14; C-terminal amide) [Peptide No. 44] gave an IC50 in experiment [3] of 13 µM. In experiment [1], QRFCTGHFGGLXPCNGP (Pen 4; 2-pyridylAla 12 (printed 2-pvridylAla); disulfide 4-14; C-terminal amide) [Peptide No. 66] yielded a Kd of 120 µM. With FCTGHFGPLYPC (Pen 2; D-Pro 8; disulfide 2-12; C-terminal amide) [Peptide No. 143], the IC50 in experiment [3] was 1.7 µM. Regarding QRFCTGHXGGLYPCNGP (Pen 4; Cha 8; disulfide 4-14; C-terminal amide) [Peptide No. 93], in experiment [3], the IC50 was 31 µM. The affinity in experiment [1], expressed as Kd, was 4.5 µM.
